Results as given in ChEMBL document CHEMBL5137063, “Medicinal Chemistry and Chemical Biology of Nurr1 Modulators: An Emerging Strategy in Neurodegeneration” (J Med Chem, 2022).

Protein sequences, listed by entry. Tags and fused reporters are not part of them.
UniProt P43354, whole entry: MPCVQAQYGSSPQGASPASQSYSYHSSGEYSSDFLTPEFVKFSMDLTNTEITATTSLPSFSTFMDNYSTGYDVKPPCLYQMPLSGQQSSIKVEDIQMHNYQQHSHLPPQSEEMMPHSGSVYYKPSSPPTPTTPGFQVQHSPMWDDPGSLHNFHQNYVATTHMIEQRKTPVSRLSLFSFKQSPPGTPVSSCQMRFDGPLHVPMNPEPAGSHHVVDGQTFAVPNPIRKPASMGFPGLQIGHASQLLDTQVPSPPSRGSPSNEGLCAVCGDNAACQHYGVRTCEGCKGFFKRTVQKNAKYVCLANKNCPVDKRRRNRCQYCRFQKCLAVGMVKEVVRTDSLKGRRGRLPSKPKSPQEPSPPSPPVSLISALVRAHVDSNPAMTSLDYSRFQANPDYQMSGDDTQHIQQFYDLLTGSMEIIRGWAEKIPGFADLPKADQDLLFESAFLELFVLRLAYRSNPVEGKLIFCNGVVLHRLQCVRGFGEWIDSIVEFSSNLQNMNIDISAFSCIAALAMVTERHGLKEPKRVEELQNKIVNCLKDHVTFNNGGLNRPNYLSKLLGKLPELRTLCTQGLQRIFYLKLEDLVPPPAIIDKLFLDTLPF

Molecular target: Nuclear receptor subfamily 4 group A member 2 (Homo sapiens, UniProt P43354)
Test: Agonist activity at human Nurr1 measured by Gal4-Nurr1 hybrid reporter gene assay

EC50: 120 nM
SMILES: O=C(O)C[C@H](O)C[C@H](O)/C=C/c1c(C2CC2)nc2ccccc2c1-c1ccc(F)cc1 [PITAVASTATIN]
